Laboratory results taken from article PMC10853541.

Sequences of proteins named here, by UniProt entry; tags and fusion partners are left off. Residues count along the entry.
UniProt P48061, 22-93: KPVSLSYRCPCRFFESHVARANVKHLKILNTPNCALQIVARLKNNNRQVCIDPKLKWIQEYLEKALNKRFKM

How the values were obtained:
[1] = target: N-terminal-6His-tagged CXCL12 (HMGBiotech) (UniProt P48061); experiment: MST; frHMGB1 or frHMGB1-TL titrated (16 points) into 50 nM 6His-tagged CXCL12 labelled with RED-tris-NTA; 24 °C, 20 mM NaH2PO4/Na2HPO4 pH 7.3, 0.05% TWEEN, 20 mM NaCl; one binding site
[2] = target: N-terminal-6His-tagged CXCL12 (HMGBiotech) (UniProt P48061); experiment: MST; as a8 but with 150 mM NaCl

- pKd [1]: 4.90
- pKd [2]: 4.09
Substance: tail-less fully reduced HMGB1 (frHMGB1-TL) (domain or fragment)

pKd: −log10 of the molar value.
